# pIC50: −log10 of the molar value.
# By UniProt entry, the sequences of proteins in these tests, tags left out. Where a name states a change or a piece, a line headed by the entry shows the natural chain unless it says otherwise.
# UniProt Q99572: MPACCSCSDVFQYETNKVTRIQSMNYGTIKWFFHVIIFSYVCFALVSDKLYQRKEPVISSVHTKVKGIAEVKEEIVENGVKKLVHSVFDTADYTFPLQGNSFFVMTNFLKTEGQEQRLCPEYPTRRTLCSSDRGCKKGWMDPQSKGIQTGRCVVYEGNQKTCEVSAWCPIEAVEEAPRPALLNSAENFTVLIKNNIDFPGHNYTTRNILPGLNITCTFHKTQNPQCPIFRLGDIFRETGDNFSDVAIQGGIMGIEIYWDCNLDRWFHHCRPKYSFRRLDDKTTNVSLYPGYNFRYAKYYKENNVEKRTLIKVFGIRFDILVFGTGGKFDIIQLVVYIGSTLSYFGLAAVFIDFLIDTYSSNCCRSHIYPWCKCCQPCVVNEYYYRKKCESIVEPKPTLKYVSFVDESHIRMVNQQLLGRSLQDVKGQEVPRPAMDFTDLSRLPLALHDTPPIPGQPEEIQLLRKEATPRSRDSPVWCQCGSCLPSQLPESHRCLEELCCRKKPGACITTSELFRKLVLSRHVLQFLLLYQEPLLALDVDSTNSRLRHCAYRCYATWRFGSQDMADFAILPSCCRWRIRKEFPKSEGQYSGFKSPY
# Experiments:
# P2X purinoceptor 7 = P2X purinoceptor 7 (Homo sapiens, UniProt Q99572); experiment: Antagonist activity at recombinant human P2X7 receptor assessed as inhibition of BzATP-mediated Yo-Pro uptake measured for 1 hr by FLIPR assay
# P2X purinoceptor 3 = target: T1, P2X purinoceptor 3 (Homo sapiens, UniProt P56373); experiment: Antagonist activity at human P2X3 receptor
# T1 sequence (P56373 whole entry): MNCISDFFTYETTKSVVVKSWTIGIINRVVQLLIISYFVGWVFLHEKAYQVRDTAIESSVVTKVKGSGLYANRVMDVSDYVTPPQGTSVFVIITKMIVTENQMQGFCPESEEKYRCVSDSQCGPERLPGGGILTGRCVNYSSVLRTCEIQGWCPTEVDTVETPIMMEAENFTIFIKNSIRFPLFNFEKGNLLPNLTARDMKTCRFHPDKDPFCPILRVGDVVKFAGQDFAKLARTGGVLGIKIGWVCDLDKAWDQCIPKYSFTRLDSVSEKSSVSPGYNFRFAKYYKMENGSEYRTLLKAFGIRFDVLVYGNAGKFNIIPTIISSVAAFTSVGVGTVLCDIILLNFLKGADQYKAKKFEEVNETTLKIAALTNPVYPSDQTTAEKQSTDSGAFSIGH
smiles,measurement,setting,value
Cc1nc(/N=N/c2ccc(S(=O)(=O)O)cc2S(=O)(=O)O)c(COP(=O)(O)O)c(C=O)c1O,pIC50,P2X purinoceptor 7,5.93
same,pIC50,P2X purinoceptor 3,6.62
